Results taken from PMC3726004 (Bioorganic & medicinal chemistry, 2009).

Protein sequences, listed by entry. Tags and fused reporters are not part of them. Residues count along the entry.
UniProt P09483, 31-630: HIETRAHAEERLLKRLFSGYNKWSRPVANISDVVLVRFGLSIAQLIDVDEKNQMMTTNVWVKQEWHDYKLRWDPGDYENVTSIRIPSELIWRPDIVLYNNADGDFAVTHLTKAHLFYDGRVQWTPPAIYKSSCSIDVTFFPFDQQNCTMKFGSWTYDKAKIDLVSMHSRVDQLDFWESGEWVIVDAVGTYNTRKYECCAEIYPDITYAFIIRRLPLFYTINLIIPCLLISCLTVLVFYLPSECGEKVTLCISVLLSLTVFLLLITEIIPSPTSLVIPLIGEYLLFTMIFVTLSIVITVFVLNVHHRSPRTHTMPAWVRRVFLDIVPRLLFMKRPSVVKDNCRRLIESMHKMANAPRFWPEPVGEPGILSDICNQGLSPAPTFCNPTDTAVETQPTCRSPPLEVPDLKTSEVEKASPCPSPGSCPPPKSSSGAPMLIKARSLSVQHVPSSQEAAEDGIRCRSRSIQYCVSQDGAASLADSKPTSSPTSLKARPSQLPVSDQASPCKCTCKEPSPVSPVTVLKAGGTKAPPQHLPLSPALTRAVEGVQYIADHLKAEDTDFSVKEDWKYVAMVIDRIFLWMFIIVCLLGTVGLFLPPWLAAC
UniProt P12390, 25-500: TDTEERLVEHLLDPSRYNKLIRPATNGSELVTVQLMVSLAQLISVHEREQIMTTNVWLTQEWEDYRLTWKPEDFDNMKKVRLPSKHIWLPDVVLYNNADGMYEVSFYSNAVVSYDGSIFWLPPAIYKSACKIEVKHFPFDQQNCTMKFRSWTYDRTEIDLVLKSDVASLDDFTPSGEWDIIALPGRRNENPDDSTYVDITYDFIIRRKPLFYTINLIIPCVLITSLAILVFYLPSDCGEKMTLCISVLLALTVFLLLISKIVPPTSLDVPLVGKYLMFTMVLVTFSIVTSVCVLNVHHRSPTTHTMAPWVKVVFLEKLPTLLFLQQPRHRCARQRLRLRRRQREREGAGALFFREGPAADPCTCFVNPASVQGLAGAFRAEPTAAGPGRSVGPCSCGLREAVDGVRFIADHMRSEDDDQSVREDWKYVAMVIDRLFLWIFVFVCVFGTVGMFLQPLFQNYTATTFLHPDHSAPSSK

Target: α4β2* nAChRs (Rattus norvegicus, UniProt P09483+P12390)
Assay: [3H]nicotine
Format: binding

Cc1ccc(C(=O)O[C@@H](C[C@@H]2CCC[C@H](CC(=O)c3ccccc3)N2C)c2ccccc2)cc1.Cl [Compound 3, (2S, 6S, 2R)-2-[6-(2-Toluyloxy-2-phenylethyl)-1-methylpiperidin-2-yl]-1-phenylethanone hydrochloride]
fold less potent than lobeline in inhibiting [3H]nicotine binding (α4β2*): 215–4800 fold
